The record followed here is PMC3806475, “Marine Derived Hamacanthins as Lead for the Development of Novel PDGFRβ Protein Kinase Inhibitors” (Marine Drugs, 2013).

Sequences of proteins named here, by UniProt entry; tags and fusion partners are left off. A change or cut given only in a name is not applied to a line headed by its entry. Residues count along the entry.
UniProt P08069, 31-1367: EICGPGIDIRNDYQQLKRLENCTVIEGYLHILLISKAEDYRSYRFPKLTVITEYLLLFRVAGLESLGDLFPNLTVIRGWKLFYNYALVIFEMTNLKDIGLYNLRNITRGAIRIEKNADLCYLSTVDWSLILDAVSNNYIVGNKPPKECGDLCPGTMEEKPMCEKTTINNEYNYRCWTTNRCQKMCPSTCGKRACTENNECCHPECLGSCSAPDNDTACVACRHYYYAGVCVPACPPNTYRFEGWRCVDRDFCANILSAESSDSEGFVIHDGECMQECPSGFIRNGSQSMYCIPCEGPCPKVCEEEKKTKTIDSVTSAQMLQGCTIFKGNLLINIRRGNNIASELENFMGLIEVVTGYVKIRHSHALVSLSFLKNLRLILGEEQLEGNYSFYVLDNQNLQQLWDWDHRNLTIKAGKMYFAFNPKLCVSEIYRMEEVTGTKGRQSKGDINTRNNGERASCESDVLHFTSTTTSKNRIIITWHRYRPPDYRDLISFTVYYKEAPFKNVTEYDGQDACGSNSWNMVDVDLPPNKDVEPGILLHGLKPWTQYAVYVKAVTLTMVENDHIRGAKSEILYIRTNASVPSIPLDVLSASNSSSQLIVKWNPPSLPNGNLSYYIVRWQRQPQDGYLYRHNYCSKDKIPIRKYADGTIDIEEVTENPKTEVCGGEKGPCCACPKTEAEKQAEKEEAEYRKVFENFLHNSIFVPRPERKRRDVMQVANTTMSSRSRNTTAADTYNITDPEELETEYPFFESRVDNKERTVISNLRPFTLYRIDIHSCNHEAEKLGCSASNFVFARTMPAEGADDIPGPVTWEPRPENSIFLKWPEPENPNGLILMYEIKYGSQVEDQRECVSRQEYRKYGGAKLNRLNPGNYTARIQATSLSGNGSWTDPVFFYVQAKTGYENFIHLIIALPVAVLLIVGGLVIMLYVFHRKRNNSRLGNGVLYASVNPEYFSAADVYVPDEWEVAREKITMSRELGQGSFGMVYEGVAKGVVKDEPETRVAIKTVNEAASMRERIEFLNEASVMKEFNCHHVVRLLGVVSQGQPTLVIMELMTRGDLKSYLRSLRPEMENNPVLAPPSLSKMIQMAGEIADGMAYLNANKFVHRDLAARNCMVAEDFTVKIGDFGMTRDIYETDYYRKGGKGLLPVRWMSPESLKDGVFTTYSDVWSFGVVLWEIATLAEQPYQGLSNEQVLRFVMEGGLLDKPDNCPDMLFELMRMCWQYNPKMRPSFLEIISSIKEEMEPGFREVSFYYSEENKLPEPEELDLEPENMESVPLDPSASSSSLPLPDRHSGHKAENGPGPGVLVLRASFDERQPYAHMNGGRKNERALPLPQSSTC
UniProt P31749: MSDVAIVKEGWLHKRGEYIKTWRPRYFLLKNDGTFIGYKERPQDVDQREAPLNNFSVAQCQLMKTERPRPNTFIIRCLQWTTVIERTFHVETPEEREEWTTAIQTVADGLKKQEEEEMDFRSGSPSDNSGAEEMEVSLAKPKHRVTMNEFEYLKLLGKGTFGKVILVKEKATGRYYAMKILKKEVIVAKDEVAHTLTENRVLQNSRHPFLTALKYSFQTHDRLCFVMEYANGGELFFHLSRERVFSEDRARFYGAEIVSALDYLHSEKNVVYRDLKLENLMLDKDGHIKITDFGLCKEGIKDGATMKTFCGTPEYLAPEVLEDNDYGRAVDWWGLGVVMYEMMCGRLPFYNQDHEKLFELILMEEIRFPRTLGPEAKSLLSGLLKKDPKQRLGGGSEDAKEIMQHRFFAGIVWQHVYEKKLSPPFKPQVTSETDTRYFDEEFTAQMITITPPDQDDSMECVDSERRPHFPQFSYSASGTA
UniProt Q02763, 23-1124: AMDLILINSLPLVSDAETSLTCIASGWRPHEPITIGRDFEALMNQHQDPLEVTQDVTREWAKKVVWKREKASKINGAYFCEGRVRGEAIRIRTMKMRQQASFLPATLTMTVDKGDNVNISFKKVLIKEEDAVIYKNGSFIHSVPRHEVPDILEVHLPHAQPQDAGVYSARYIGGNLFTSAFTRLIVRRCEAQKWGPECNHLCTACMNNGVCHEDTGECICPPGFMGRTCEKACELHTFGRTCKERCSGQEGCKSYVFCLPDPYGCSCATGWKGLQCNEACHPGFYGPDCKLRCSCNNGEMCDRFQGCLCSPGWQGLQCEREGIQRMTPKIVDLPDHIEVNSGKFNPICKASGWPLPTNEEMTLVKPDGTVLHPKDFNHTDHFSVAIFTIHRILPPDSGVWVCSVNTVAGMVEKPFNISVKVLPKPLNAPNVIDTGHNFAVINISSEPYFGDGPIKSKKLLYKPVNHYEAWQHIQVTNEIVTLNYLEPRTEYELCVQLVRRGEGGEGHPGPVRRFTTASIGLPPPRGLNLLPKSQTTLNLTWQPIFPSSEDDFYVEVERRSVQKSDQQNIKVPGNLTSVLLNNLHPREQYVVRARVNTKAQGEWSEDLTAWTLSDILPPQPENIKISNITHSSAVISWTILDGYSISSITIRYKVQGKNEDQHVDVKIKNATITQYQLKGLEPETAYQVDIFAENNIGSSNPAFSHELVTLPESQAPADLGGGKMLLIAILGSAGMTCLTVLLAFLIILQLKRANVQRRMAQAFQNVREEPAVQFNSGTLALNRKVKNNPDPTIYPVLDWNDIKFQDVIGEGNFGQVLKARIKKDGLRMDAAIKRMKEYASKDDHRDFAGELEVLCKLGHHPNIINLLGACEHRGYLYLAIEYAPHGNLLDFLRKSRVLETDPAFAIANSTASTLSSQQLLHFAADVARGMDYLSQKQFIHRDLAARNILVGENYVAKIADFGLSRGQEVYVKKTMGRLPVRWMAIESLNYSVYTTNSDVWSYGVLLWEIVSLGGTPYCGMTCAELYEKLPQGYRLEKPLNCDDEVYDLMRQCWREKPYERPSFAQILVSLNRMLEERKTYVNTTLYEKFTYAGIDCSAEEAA

Targets include IGF1R (Homo sapiens, UniProt P08069); AKT1 (Homo sapiens, UniProt P31749); SRC (Homo sapiens, UniProt P12931); TIE2 (Homo sapiens, UniProt Q02763).
Common to all, as to assay: 33PanQinase protein kinase activity assay
Common to all, as to type: biochemical
What all share (conditions): recombinant kinase, 1 µM ATP

For the next test, the target named is T1, ARK5 (Homo sapiens, UniProt O60285).
T1 sequence (O60285 1-661): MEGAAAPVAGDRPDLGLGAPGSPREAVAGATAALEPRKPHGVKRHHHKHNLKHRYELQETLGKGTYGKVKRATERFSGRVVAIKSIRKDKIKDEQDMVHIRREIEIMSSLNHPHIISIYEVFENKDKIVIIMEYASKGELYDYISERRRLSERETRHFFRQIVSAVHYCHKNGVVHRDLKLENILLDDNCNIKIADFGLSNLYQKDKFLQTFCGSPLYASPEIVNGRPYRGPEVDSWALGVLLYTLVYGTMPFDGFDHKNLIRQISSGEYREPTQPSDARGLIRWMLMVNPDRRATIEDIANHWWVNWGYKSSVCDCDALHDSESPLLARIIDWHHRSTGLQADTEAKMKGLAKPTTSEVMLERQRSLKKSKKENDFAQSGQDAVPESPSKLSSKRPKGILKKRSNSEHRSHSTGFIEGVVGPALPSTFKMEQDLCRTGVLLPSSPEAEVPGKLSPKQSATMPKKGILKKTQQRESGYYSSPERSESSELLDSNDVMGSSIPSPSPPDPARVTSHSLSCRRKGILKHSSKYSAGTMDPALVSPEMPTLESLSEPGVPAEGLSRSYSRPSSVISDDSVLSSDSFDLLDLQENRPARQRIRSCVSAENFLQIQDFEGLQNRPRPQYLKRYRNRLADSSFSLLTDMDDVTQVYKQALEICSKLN

The target in the next test is T2, EPHB4 (Homo sapiens, UniProt P54760).
T2 sequence (P54760 16-987): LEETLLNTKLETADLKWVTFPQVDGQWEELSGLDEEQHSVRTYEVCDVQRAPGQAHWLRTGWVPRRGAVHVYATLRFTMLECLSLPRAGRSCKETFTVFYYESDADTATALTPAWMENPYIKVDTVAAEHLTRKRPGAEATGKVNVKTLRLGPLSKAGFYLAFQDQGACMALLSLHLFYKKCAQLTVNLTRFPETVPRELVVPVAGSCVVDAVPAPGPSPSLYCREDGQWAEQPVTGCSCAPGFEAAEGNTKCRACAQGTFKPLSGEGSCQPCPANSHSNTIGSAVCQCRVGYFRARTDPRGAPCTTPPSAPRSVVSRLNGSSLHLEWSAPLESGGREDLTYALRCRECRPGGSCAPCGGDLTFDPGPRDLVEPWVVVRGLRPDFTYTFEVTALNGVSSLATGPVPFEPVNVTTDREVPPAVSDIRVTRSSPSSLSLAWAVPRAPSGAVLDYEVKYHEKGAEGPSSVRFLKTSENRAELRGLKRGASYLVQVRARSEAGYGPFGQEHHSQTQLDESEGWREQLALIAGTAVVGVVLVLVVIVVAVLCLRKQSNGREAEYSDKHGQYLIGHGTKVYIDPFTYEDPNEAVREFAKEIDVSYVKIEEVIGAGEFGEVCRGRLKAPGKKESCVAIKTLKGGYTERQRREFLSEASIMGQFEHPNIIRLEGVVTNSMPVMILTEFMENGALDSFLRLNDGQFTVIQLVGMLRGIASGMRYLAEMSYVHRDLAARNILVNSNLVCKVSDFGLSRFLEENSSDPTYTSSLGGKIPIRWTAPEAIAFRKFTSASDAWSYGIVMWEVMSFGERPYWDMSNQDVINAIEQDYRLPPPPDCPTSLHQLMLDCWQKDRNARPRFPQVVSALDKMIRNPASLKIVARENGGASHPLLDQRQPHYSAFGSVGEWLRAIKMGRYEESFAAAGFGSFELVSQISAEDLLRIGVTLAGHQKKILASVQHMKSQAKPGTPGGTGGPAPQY

In another test the target is T3, Aurora-A (Homo sapiens, UniProt O14965).
T3 sequence (O14965 1-403): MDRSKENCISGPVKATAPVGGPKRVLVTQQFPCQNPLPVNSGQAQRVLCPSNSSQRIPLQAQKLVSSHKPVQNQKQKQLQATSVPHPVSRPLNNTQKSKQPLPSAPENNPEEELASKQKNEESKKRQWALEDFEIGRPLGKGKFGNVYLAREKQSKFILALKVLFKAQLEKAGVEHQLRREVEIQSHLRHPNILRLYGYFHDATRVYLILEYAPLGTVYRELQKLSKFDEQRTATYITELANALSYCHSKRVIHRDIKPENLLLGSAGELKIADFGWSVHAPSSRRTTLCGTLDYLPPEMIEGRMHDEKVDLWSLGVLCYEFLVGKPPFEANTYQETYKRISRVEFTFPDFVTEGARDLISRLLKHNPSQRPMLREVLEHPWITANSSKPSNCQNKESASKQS

As for “3-(indole-3-yl)-4-(3,4,5-trimethoxyphenyl)-1H-pyrrole-2,5-dione [Compound 1, reference compound]”, the half-inhibitory concentration (IC50) (commonly the point on the concentration scale where inhibition reaches its midpoint) at ARK5 was 16 µM; on EPHB4, 53 µM; at IGF1R, 22 µM; on Aurora-A, 46 µM; on AKT1, greater than 100 µM; on SRC, 14 µM. Also, the IC50 at TIE2 was 5 µM.
